Measured values as given in US20110052537A1, “NITRO-BASED EXPLOSIVE REMEDIATION” (published 2011).

Key:
[1] = system: Clostridium polysaccharolyticum ATCC 33142; assay: TNT degradation by ruminal bacteria cultures (Table 2); details: Clostridium polysaccharolyticum ATCC 33142, substrate C; anaerobic culture with TNT
[2] = system: Desulfovibrio desulfuricans ssp dosulluricans A; assay: as above; details: substrate A, anaerobic culture with TNT

| Structure (SMILES) | TNT / metabolite found in culture (HPLC), column per compound [1] [%] | TNT / metabolite found in culture (HPLC), column per compound [2] [%] |
| --- | --- | --- |
| Cc1c([N+](=O)[O-])cc(N)cc1[N+](=O)[O-] | 19 | 34 |
| Cc1c(N)cc(N)cc1[N+](=O)[O-] | 0 | 0 |
| Cc1c(N)cc([N+](=O)[O-])cc1[N+](=O)[O-] | 20 | 21 |
| Cc1c(N)cc([N+](=O)[O-])cc1N | 0 | 0 |
